Test results published in patent publication US20060269529A1, “Modified t lymphocytes and uses therefor” (priority 2002, published 2006).

What was measured:
[1] = test system: CT26 murine colon adenocarcinomas; assay: Adoptive transfer, subcutaneous CT26 tumors in BALB/c mice; assay type: in vivo; conditions: i.v. CTLs days 7, 11, 14, 17, daily IL-2, day 19 post implantation, FIG. 4A
Experimental: (§1) On day 0, tumor cells were implanted into the subcutaneous space on the right flank of recipient mice. On the days of treatment, CTLs (4 to 7 post-transduction) were harvested, washed, resuspended in cold PBS, and injected in a volume of 300 μl into the retro-orbital venous plexus. Mice were treated daily with 25,000 units of human recombinant interleukin-2 (IL-2) (Chiron) in 0.5 ml of PBS via intraperitoneal injection. TNP-470 (TAP Holdings Inc., Deerfield, Ill.) (30 mg/kg) was injected subcutaneously (into a site remote from the tumor) every other day in 0.3 ml PBS starting with the first day of CTL therapy. Starting volumes of tumors ranged from 40 to 80 mm^3. All mice were sacrificed when control mice reached a mean tumor volume of 2,000 mm^3 or had extensive tumor ulceration.

[2] = test system: B16.F10 murine melanomas; assay: Adoptive transfer, subcutaneous B16.F10 tumors in C57BL/6 mice; assay type: in vivo; conditions: i.v. CTLs days 7, 11, 14, 17, daily IL-2, day 19 post implantation, FIG. 4B
Experimental: as §1

## IL-2: human recombinant interleukin-2 (Chiron), given daily intraperitoneally
[1]
  inhibition of CT26 tumor growth (from T/C ratio): no independent anti-tumor effect
[2]
  inhibition of B16.F10 tumor growth (from T/C ratio): essential to achieve significant therapeutic effect
